This note sets out measurements from ChEMBL document CHEMBL4706658, “Discovery and Biological Evaluation of N-Methyl-pyrrolo[2,3-b]pyridine-5-carboxamide Derivatives as JAK1-Selective Inhibitors” (J Med Chem, 2021).

The chains behind the UniProt entries cited, without tags or fusion partners. Where a name states a change or a piece, a line headed by the entry shows the natural chain unless it says otherwise.
UniProt P23458: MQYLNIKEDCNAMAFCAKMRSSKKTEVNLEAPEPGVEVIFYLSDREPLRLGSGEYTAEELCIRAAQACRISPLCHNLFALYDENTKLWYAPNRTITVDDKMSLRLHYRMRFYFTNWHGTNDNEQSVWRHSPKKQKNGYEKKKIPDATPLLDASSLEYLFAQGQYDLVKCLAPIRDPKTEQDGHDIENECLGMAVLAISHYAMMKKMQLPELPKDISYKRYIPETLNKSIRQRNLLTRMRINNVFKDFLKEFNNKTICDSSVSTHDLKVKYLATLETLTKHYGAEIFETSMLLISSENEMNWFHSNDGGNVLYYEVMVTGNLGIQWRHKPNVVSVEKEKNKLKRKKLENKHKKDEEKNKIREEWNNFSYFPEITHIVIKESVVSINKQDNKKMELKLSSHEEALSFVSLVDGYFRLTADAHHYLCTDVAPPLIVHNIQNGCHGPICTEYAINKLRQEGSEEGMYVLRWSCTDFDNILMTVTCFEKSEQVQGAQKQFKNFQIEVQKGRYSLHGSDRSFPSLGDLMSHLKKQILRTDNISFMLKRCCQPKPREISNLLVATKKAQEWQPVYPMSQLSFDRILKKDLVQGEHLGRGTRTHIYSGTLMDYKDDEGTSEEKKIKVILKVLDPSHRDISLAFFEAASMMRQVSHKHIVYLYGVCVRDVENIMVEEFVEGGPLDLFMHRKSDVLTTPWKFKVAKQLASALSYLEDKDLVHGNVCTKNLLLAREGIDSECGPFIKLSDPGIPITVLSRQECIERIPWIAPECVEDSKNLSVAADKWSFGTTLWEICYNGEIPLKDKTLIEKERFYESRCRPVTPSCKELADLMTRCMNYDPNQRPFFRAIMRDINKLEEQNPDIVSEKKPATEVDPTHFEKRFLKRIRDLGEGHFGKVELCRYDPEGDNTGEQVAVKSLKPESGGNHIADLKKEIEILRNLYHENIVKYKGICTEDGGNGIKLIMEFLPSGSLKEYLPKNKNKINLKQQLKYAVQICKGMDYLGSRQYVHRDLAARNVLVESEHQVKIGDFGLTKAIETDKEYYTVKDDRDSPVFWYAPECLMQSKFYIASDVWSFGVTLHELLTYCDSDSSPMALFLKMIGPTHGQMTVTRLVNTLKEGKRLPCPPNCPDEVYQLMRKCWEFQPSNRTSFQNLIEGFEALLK
UniProt O60674: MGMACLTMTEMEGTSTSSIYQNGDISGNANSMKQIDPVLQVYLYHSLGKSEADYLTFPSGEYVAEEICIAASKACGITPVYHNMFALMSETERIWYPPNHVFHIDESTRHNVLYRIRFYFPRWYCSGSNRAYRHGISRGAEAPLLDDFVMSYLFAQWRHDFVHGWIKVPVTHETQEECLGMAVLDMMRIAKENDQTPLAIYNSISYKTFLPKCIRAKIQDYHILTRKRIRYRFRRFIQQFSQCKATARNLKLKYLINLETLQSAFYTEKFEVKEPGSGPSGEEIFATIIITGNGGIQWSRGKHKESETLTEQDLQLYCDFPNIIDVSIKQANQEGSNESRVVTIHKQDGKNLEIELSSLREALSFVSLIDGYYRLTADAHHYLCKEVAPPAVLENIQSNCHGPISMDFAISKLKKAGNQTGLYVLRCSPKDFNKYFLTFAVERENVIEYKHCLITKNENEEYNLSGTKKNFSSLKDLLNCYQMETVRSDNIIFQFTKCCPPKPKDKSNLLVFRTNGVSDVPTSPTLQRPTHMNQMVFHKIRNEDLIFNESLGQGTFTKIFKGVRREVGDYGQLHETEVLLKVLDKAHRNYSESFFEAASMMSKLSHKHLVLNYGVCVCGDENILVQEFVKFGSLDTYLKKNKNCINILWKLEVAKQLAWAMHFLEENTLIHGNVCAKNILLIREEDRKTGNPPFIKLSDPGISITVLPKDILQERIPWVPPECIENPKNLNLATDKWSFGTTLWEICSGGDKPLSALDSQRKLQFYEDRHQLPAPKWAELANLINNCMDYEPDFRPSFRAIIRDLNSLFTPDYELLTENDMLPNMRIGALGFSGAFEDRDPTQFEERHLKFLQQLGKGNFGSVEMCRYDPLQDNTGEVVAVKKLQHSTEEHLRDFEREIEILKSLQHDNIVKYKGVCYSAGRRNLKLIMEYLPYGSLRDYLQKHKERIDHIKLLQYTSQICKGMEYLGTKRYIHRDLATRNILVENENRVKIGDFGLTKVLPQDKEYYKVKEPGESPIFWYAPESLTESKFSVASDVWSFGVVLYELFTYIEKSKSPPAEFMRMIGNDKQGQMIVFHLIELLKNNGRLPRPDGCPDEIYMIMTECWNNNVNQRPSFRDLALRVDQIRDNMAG
UniProt P29597: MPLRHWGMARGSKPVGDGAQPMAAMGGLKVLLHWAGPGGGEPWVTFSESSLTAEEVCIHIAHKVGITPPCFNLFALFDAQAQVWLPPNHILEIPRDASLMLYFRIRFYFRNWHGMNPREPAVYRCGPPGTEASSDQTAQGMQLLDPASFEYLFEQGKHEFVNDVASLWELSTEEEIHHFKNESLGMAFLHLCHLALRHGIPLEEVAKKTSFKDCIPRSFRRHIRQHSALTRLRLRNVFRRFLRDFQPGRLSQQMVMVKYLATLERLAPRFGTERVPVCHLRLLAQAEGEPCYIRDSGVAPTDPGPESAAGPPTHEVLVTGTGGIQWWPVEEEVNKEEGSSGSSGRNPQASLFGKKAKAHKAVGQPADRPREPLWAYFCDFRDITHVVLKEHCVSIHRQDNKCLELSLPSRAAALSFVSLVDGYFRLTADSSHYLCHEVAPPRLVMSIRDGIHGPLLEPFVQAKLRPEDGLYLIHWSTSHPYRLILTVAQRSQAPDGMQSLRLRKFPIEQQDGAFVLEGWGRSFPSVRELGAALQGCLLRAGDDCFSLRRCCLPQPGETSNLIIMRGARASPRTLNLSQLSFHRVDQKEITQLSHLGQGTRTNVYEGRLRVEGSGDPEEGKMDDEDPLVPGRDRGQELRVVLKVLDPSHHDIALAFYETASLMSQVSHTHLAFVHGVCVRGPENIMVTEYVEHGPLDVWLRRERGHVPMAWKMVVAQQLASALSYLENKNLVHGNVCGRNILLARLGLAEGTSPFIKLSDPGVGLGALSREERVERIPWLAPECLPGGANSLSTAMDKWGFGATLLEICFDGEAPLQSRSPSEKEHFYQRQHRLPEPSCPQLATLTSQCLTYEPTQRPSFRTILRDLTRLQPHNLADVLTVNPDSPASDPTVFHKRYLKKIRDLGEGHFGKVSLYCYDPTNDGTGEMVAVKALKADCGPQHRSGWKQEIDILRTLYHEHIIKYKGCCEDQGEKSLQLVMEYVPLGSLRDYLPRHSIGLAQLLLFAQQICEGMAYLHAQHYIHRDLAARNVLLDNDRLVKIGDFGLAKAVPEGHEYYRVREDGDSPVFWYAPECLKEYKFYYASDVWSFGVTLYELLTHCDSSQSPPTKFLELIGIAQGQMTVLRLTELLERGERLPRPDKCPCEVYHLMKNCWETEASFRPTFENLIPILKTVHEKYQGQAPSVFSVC

Assay [1] concerns the target Tyrosine-protein kinase JAK1 (Homo sapiens, UniProt P23458).
Assay [2] concerns the target Tyrosine-protein kinase JAK2 (Homo sapiens, UniProt O60674).
In assay [3] the target is Non-receptor tyrosine-protein kinase TYK2 (Homo sapiens, UniProt P29597).

For the molecule `NC(=O)c1cnc2[nH]ccc2c1NC1CCN(Cc2ccccc2)CC1`, in assay [1], the IC50 (commonly the concentration needed to halve the response being measured) worked out at 0.088 µM.

In assay [2], `CNC(=O)c1cnc2[nH]ccc2c1N[C@@H]1CCN(Cc2ccccc2)[C@@H](C)C1` (relative stereo) had an IC50 of 0.179 µM. In other words, the sub-micromolar range. On the same count and under the same terms, under `CNC(=O)c1cnc2[nH]ccc2c1N[C@@H]1CCN(Cc2cccc(OC)c2)[C@H](C)C1` (relative stereo) stands 0.0284 µM; under `CNC(=O)c1cnc2[nH]ccc2c1N[C@@H]1CCN(Cc2cccc(OC)c2)[C@@H](C)C1` (relative stereo), 0.0885 µM. On to `CNC(=O)c1cnc2[nH]ccc2c1N[C@@H]1CCN(Cc2ccc(OC)cc2)[C@H](C)C1` (relative stereo), for which half-maximal inhibition in assay [2] (IC50) required 0.0632 µM. For `CNC(=O)c1cnc2[nH]ccc2c1N[C@@H]1CCN(Cc2cccc(OC)c2)C[C@@H]1F` (relative stereo), the IC50 in assay [3] is 0.116 µM. In other words, the sub-micromolar range. As to `CNC(=O)c1cnc2[nH]ccc2c1N[C@@H]1CCN(Cc2cccc(Cl)c2)C[C@H]1F` (relative stereo), the figures for the IC50 in assay [1], in assay [3] and in assay [2] were 0.017 µM, 0.308 µM and 0.028 µM, respectively. On to `CNC(=O)c1cnc2[nH]ccc2c1NC1CCN(Cc2ccccc2)CC1`, for which, in assay [2], the IC50 came out at 0.66 µM.
